The source of these data is patent publication US20120309087A1, “CANCER THERAPY” (University Court of The University of Dundee, priority 2006, published 2012).

The subject of the experiment is ARE-driven luciferase activity in AREc32 cells. The experiment can be described thus: Antagonism of induced ARE-driven luciferase activity in AREc32 cells. Type of experiment: cell-based, human.

For `CC1=C(/C=C/C(C)=C/C=C/C(C)=C/C(=O)O)C(C)(C)CCC1` [ATRA, all trans-retinoic acid], the “chemotherapeutic agent-mediated induction of luciferase activity” value is listed as “completely ablates” and the “chemotherapeutic agent-mediated luciferase activity after BSO pretreatment” value was “significantly antagonising”.
